From patent US20250388560A1, “AROMATIC COMPOUND AND USE THEREOF” (HITGEN INC., priority 2023, published 2025)

Amino acid sequences for entries named in this document (tags omitted).
UniProt P19474, whole entry: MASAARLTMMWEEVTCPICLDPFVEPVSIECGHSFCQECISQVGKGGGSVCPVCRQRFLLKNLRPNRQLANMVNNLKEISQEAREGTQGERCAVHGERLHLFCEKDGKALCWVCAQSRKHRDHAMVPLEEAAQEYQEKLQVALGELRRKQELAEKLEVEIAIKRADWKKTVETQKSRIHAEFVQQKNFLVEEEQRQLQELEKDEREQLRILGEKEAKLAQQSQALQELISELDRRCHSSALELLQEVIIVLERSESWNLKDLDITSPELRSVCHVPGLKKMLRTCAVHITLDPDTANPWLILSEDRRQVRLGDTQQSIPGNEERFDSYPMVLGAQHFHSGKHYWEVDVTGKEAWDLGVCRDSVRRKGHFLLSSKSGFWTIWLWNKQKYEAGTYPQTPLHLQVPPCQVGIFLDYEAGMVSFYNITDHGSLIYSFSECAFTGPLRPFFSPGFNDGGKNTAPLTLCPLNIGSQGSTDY

Biological target: TRIM21 protein (Homo sapiens (Human), UniProt P19474)
Assay: SPR binding assay (Biacore 8K) of compounds to immobilised TRIM21 protein
Details: read-out: TRIM21 Kd Test Value, 25° C., steady state affinity model (1:1 binding model)

CN(CC1CCCCC1)C(=O)c1ccc(C2CCCCC2)cc1S(C)(=O)=O
Kd: > 10 µM
